# Experimental data from US9315520B2, “2-amino-6-methyl-4,4a,5,6-tetrahydropyrano[3,4-d][1,3]thiazin-8a(8H)-yl-1,3-thiazol-4-yl amides” (Pfizer Inc., priority 2014, dated 2016).
# By UniProt entry, the sequences of proteins in these tests, tags left out. Residues count along the entry.
# UniProt P56817, 46-457: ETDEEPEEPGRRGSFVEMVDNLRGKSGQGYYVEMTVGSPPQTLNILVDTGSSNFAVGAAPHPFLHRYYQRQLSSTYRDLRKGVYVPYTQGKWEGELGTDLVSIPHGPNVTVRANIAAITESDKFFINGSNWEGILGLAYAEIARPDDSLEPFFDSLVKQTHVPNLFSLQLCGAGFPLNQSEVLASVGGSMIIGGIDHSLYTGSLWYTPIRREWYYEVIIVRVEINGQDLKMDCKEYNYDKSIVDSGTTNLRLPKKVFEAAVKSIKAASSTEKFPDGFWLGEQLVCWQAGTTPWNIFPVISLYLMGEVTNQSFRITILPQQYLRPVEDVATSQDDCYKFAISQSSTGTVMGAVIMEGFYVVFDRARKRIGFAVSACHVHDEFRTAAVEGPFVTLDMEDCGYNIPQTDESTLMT
# Target: BACE1 (Homo sapiens (Human), UniProt P56817)
# Test: BACE1 Cell-Free Assay (fluorescence polarization)
# Assay type: biochemical
# Source text: Beta-secretase (BACE) is one of the enzymes involved in the generation of the amyloid beta peptide found in the amyloid plaques of Alzheimer's Disease patients. This assay measures the inhibition of the beta-secretase enzyme as it cleaves a non-native peptide.
# A synthetic APP substrate that can be cleaved by beta-secretase having N-terminal biotin and made fluorescent by the covalent attachment of Oregon Green at the Cys residue is used to assay beta-secretase activity in the presence or absence of the inhibitory compounds. The substrate is Biotin-[…]^EVEFR-C[Oregon Green]KK-OH. The BACE1 enzyme is affinity purified material from conditioned media of CHO-K1 cells that have been transfected with a soluble BACE construct (BACE1deltaTM96His). Compounds are incubated in a ½ log dose response curve from a top concentration of 100 μM with BACE1 enzyme and the biotinylated fluorescent peptide in 384-well black plates (Thermo Scientific #4318). BACE1 is at a final concentration of 0.1 nM with a final concentration of peptide substrate of 150 nM in a reaction volume of 30 μL assay buffer [100 mM sodium acetate, pH 4.5 (brought to pH with acetic acid), and 0.001% Tween-20]. Plates are covered and incubated for 3 hours at 37° C. The reaction is stopped with the addition of 30 μL of 1.5 μM Streptavidin (Pierce, #21125). After a 10 minute incubation at room temperature, plates are read on a PerkinElmer EnVision for fluorescence polarization (Ex485 nm/Em530 nm). The activity of the beta-secretase enzyme is detected by changes in the fluorescence polarization that occur when the substrate is cleaved by the enzyme.
# [1] = geometric mean of 2-4 determinations unless otherwise indicated (b: ≧5; c: single determination), read-out: BACE1 Cell-free Assay IC50
# [2] = Table 4, read-out: BACE1 Cell Free IC50
Structure (SMILES),IC50 [1] [nM],IC50 [2] [nM]
"C[C@H]1C[C@H]2CSC(N)=N[C@@]2(c2nc(NC(=O)c3ccn(C4CC4)n3)cs2)CO1 [Example 84, N-{2-[(4aR,6S,8aR)-2-amino-6-methyl-4,4a,5,6-tetrahydropyrano[3,4-d][1,3]thiazin-8a(8H)-yl]-1,3-thiazol-4-yl}-1-cyclopropyl-1H-pyrazole-3-carboxamide, formate salt]",1660,
"C[C@H]1C[C@H]2CSC(N)=N[C@@]2(c2nc(NC(=O)c3coc(C(F)F)n3)cs2)CO1 [Example 8, N-{2-[(4aR,6S,8aR)-2-amino-6-methyl-4,4a,5,6-tetrahydropyrano[3,4-d][1,3]thiazin-8a(8H)-yl]-1,3-thiazol-4-yl}-2-(difluoromethyl)-1,3-oxazole-4-carboxamide]",11,
"C[C@H]1C[C@H]2CSC(N)=N[C@@]2(c2nc(NC(=O)c3ccc(OC(F)F)cn3)cs2)CO1 [Example 1, N-{2-[(4aR,6S,8aR)-2-amino-6-methyl-4,4a,5,6-tetrahydropyrano[3,4-d][1,3]thiazin-8a(8H)-yl]-1,3-thiazol-4-yl}-5-(difluoromethoxy)pyridine-2-carboxamide]",41,41
"C[C@H]1C[C@H]2CSC(N)=N[C@@]2(c2nc(NC(=O)c3cnn(C4CC4)c3)cs2)CO1 [Example 80, N-{2-[(4aR,6S,8aR)-2-amino-6-methyl-4,4a,5,6-tetrahydropyrano[3,4-d][1,3]thiazin-8a(8H)-yl]-1,3-thiazol-4-yl}-1-cyclopropyl-1H-pyrazole-4-carboxamide]",8070,
"C[C@H]1C[C@H]2CSC(N)=N[C@@]2(c2nc(NC(=O)c3nn(C(F)F)cc3Cl)cs2)CO1 [Example 6, N-{2-[(4aR,6S,8aR)-2-amino-6-methyl-4,4a,5,6-tetrahydropyrano[3,4-d][1,3]thiazin-8a(8H)-yl]-1,3-thiazol-4-yl}-4-chloro-1-(difluoromethyl)-1H-pyrazole-3-carboxamide]",4,
C[C@H]1C[C@H]2CSC(N)=N[C@@]2(c2nc(NC(=O)c3ccc(OC(F)F)cn3)cs2)CO1 [Comparator 1],,> 100000
"C[C@H]1C[C@H]2CSC(N)=N[C@@]2(c2nc(NC(=O)c3ccc(Cl)cn3)cs2)CO1 [Example 7, N-{2-[(4aR,6S,8aR)-2-amino-6-methyl-4,4a,5,6-tetrahydropyrano[3,4-d][1,3]thiazin-8a(8H)-yl]-1,3-thiazol-4-yl}-5-chloropyridine-2-carboxamide]",33,33

# Counter-ions that a name gives are not always drawn. Like-named read-outs stand apart in the source and are kept apart here.
